Measurements taken from US20240383830A1, “NOVEL CANNABIDIOL DERIVATIVE, METHOD FOR PREPARING SAME, AND COMPOSITION FOR COGNITIVE FUNCTION I[…]” (priority 2021, published 2024).

Chains of the proteins cited; added tags and fusions are not shown. Residues count along the entry.
UniProt P06276, 29-602: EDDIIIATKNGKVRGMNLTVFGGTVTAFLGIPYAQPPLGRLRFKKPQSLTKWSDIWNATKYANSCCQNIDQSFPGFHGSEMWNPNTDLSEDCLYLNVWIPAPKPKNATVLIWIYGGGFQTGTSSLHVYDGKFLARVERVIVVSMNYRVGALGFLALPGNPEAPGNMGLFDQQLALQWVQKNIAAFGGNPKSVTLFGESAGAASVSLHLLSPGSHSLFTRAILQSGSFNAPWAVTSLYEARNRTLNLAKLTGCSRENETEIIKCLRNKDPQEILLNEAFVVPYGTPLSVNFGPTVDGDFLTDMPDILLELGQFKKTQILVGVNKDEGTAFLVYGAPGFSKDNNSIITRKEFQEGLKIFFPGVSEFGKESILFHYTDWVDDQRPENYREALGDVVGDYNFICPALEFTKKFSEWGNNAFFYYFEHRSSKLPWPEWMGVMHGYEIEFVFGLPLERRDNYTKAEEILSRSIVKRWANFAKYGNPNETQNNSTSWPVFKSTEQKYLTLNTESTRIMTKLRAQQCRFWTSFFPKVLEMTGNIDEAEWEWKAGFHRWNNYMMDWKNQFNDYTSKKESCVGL

Target: Butyrylcholinesterase (BuChE) (Homo sapiens, UniProt P06276)
Experiment: Butyrylcholinesterase inhibition efficiency (butyrylthiocholine/DTNB absorbance)
Assay type: biochemical
Conditions: 0.5 U/ml enzyme, butyrylthiocholine substrate, compound 0-200 μM
Procedure: Concentrations of 0, 2, 5, 10, 20, 50, 100, and 200 μM of the synthesized compounds were prepared by dilution in 10% DMSO, 63% phosphate buffer, and 27% tween 80, and 50 μl was dispensed into a 96-well plate. Acetylcholinesterase or butyrylcholinesterase was prepared at 0.5 U/ml, 50 μl was added to a 96-well plate, mixed with the aliquoted compound, and left for 10 minutes. The substrate, acetylthiocholine or butyrylthiocholine, was prepared at 0.4mg/ml, then 50 μl was added to a 96-well plate and left for 20 minutes. Dithionitrobenzoic acid (DTNB) was prepared at 1.2 mg/ml, then 50 μl was added to a 96-well plate and left for 10minutes.

CCN(C)C(=O)Oc1cccc([C@H](C)N(C)C)c1 [rivastigmine, reference compound]
IC50: 14.9 µM
